Measured values as given in paper PMC3986359, “New Cholinesterase Inhibitory Constituents from Lonicera quinquelocularis” (PLoS ONE, 2014).

The chains behind the UniProt entries cited, without tags or fusion partners. Residues count along the entry.
UniProt P22303, 32-614: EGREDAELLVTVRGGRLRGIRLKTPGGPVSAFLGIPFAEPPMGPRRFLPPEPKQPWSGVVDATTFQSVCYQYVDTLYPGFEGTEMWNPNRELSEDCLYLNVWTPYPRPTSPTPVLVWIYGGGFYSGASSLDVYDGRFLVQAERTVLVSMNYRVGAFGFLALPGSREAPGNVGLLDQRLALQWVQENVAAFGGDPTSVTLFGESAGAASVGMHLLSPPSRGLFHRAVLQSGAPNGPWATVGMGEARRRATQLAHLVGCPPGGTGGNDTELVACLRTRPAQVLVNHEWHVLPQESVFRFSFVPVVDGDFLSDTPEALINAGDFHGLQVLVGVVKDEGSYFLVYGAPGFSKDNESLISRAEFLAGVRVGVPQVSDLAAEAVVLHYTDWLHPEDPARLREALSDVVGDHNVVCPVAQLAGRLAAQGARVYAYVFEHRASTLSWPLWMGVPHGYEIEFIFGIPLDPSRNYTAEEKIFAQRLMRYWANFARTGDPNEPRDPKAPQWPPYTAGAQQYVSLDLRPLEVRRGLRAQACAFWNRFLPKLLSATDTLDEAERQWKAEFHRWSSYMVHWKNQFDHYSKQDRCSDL
UniProt P81908, whole entry: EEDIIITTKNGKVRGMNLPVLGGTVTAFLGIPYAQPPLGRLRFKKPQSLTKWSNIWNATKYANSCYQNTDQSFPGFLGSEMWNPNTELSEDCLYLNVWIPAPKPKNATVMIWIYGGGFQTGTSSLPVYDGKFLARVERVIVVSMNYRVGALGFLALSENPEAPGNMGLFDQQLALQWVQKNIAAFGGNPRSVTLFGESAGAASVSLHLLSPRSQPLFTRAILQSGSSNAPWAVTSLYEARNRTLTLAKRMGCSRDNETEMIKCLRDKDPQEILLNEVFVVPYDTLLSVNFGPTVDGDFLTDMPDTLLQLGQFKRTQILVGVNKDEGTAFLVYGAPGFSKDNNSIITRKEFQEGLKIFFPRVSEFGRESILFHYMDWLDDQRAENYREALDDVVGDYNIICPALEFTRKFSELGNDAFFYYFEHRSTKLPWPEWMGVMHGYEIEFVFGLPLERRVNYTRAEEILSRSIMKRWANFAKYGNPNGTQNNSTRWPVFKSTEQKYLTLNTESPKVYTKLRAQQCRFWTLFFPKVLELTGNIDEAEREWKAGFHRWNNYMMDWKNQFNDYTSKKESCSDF

Columns and labels:
[1] = biological target: T1, Acetylcholinesterase (EC 3.1.1.7) (Homo sapiens, UniProt P22303); type: biochemical; conditions: pH 8; read-out: AChE ± SEM (IC50)
T1 construct: purchased Sigma, Pakistan
Method: (§1) All other chemicals were of analytical grade and were used as such without further purification. Acetylcholinesterase (AChE) and butyrylcholinesterase (BChE) inhibiting activities were measured according to a modified spectrophotometric method used by Ellman et al.. Protocol and assay conditions were the same as described by Rocha et al..
(§2) The Acetylthiocholine iodide and butyrylthiocholine chloride were used as substrates for investigation of acetylcholinesterase and butyrylcholinesterase assays, respectively. The 5,5′-Dithiobis[2-nitrobenzoic-acid] (DTNB) was used for the measurement of cholinesterase activity. The 0.2 mM DTNB in 62 mM sodium phosphate buffer (pH 8.0, 880 µL), test compound solution (40 µL) and acetylcholinesterase or butyrylcholinesterase solution (40 µL) were mixed and incubated for 15 minutes (25°C). The reaction was then initiated by the addition of acetylthiocholine or butyrylthiocholine (40 µL), respectively. […] All the reactions were performed in triplicate using a BMS spectrophotometer (USA). […] The final concentration of DMSO in the reaction mixture was maintained at 6%.

[2] = biological target: T2, butyrylcholinesterase (horse-serum E.C 3.1.1.8) (Equus caballus, UniProt P81908); type: biochemical; conditions: butyrylthiocholine chloride substrate, DTNB, pH 8.0, 25°C, 412 nm; value ± SEM; read-out: BChE ± SEM (IC50)
T2 construct: butyrylcholinesterase (horse-serum E.C 3.1.1.8); purchased Sigma, Pakistan; host or cells: horse serum
Method: as §1, §2

Substance: Allanzanthane [reference compound]
- IC50 [1]: 2.94 ± 0.45 µM
- IC50 [2]: 12.96 ± 0.053 µM
